## Antibody variant affinities, Ab-14 heavy chain, assay B

Reference: Li et al. 2023, doi:10.1038/s41467-023-39022-2. File: FLAb, binding data.

Target peptide (SARS-CoV-2 spike, HR2 region): PDVDLGDISGINAS

The variants keep the light chain, the linker and the frameworks of Ab-14 (scFv order VH, a 15-residue (Gly4Ser)3 linker, VL).
VH: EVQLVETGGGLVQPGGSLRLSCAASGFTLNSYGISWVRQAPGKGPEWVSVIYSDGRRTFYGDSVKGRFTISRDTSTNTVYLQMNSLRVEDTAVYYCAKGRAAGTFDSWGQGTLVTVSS
VL: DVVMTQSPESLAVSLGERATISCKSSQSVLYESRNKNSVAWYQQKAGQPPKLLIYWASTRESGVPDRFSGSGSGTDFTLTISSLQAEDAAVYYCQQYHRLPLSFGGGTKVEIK

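The parent was found by panning a naive human phage display library on the peptide. This is the validation round: designs drawn from the data on random variants, tested in the same kind of assay. Several design methods are mixed in this list. AlphaSeq pools MATa yeast showing the antibodies with MATalpha yeast showing the peptide. The frequency of each diploid, read from paired DNA barcodes, reflects how well the two displayed proteins bind. Each replicate has its own calibration line, from reference interactions of the BCL2 family. There are six technical replicates.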

Variants are written as CDR1, CDR2 and CDR3 of the heavy chain (limits as in the source). Parent: GFTLNSYGIS, VIYSDGRRTFYGDSVK, GRAAGTFDS.
Values are log10 of the apparent Kd in nM; lower means stronger binding.
Where no diploid with the target was found in that replicate, the entry reads "ND": below detection, most likely a poor binder, though not proof of it.
Three control strains display no target. For all heavy chain designs, 1% of the pairings with them gave a signal, with a median of 2.08 and one signal in twenty below 0.84, so weak values seen in few replicates may be background.

CDR-H1	CDR-H2	CDR-H3	log10 Kd (nM) by replicate
GFTLSEYGIS	VIYSDGRRTFYGDSVK	GRAALTFDS	ND ND 2.35 ND ND ND
GFTLNDYGIS	VIYSDGRLTQYIDSVK	GRAAGAFDS	ND ND ND ND ND ND
GFDLNEYGIS	VIYADGMRTAYQDSVK	GTNAGTFDV	-0.03 -0.48 -0.59 -0.17 -0.04 0.46
GFNFDEYGIS	VIYADGMRRAYVDEVK	GSHSDVFNM	ND ND ND ND ND ND
GFTLNDYGIS	VIYSDGRRTFYADSVK	GRAAGTFIS	ND ND ND ND ND ND
GFSLNSYGIS	VIYSDGRRTFYHDSVK	GQTAGTFDS	0.72 1.08 0.50 0.68 0.47 0.52
GFTLDSYGIS	VIYSDGRRTFYGDSVK	GHAAGTFDV	1.95 0.77 0.80 -0.02 -0.21 ND
GFDLNEYGIS	VIYADGKRTAYSDSVK	GNAGGTFDS	-0.36 0.21 0.20 -0.25 -0.06 0.00
GFDLNEYGIS	VIYADGMRTAYSDSVK	GNVAGTFDT	-0.12 0.00 -0.04 -0.64 -0.62 -0.46
GFNLNSYGIS	VIYSDGRRTAYGDAVK	GRNAGTFDS	0.09 -0.25 -0.64 -0.32 -0.08 -0.40
GFDINEYGIS	VIYADGQRVAYTNSFK	GTQAGQNIN	ND 4.25 ND ND ND ND
GFDLNEYGIS	VIYADGMRTQYVDSVK	GNVAGTFDV	-0.58 -0.94 -0.84 -0.78 -0.90 -0.55
GFNLLSYGYS	VIYSDGRRTFYGDSVK	NRAAGTFLS	ND ND ND ND ND ND
GFTLNSYGIS	VIYSDGRRTFYADSVK	GRVAGTFDS	1.64 0.17 0.12 0.37 0.89 0.72; 0.75 0.56 0.12 0.63 0.38 0.47
GFSLNSYGIS	VIYSDGRRTFYGDSVK	GRTAGTFDE	0.40 0.67 0.15 0.17 0.21 0.13
GFSLDEYGIS	VIYADGRRTFYADSVK	GNNAGTFDS	-0.29 -0.32 -0.43 -0.47 -0.34 -0.44
GFDLEEYGIS	VIYADGQREAYTENVK	GNSMGMDVL	ND ND ND ND ND ND
GFTLNEYGIS	VIYSDGRRTFYGDSVK	GRAAGSFTT	ND ND ND ND ND ND
KFDLNSYGIS	VIYSDGRRTFYDDSVK	GQTAGTFDS	0.79 1.48 1.24 0.94 0.52 2.04
GFTLNSYGIS	VIYSDGRRFFYGDSVK	GRAAGTFDS	ND ND ND ND ND ND
GFSLNEYGIS	VIYSDGRRTFYGWQVK	GRTAGTFDS	ND ND ND ND ND ND
PFTLNSYGIS	VIYADGRRTFYGDSVK	GRAAGTFDS	1.13 1.48 0.73 0.54 0.80 1.61
GFTVNSYGIS	VIYSDGRRTAYGDSVK	GKAAGVFDN	ND ND ND ND ND ND
GFWLNDYGIS	VIYSDGRRTFYGDSVK	GRQAGTFDS	1.12 ND ND 1.72 2.38 2.09
GFTLNSYGIS	VIMSDGRRTFYSDSVK	GRAGGTFDW	ND ND ND ND ND ND
GFTLNEYGIS	VIYSDGRRTFYGDSVK	GRKAGTFDS	2.46 2.12 ND 2.49 1.60 ND
GFTLDSYGIS	VIYSDGRRTFYGDSVK	GWAAGTFDS	1.77 2.62 ND 1.74 ND 2.43
GFDIDEYGIS	VIYADGQRTFYADSVK	GTNAGTFDS	-0.30 -0.10 0.19 0.23 0.01 0.21
GFTLNEYGIS	VIYSDGRRTFYQDSVK	GRFAGTFDD	1.25 0.85 0.46 0.24 1.05 1.41
GFDLESYGIS	VIYADGVRTAYADSVK	GNVAGTFDS	-0.38 -0.20 -0.28 -0.44 -0.34 -0.20
GFDLNEYGIS	VIYADGMRTAYADSVK	GNNAGTFDA	0.65 0.08 0.80 -0.48 0.15 0.39
GFLIDEYGIS	VIYADGQRTAYADDVK	GYVGGIGGI	ND ND ND ND ND ND
GFDVDEQGIS	VIYADGRRSQYANSVK	GANGGMFFI	ND ND ND ND ND ND
GFTLNSQGIS	VIYSDGRRTFYGDSVK	GRAAGTFDS	1.57 1.48 ND -0.15 ND ND
GFDLNEYGIS	VIYADGMRTAYIDSVK	GNVAGTFDQ	-0.10 -0.08 -0.39 -0.21 -0.24 -0.15
GFTLNSYGIS	VIYVDGRRTAYGDSVK	GREAGTFDS	-0.80 -0.28 -0.49 -1.03 -0.49 -0.09
GFDLNEYGIS	VIYADGRRTFYADSVK	GNQAGTFTS	0.02 -0.11 -0.23 -0.26 -0.18 0.09
GFVLQEYGIS	VIYADGMRTAYAEDFK	GLTGGNLHI	ND ND ND ND ND ND
GFHLNSYGIS	VIYSDGRRTFYSDSVK	GRTAGTFDS	0.93 0.54 0.40 0.66 0.79 0.75
GFDLNEYGIS	VIYADGMRSAYADSVK	GTNAGTFDV	-0.56 -0.68 -1.04 -0.90 -1.00 -0.92
GFTLNSYGIS	VIYSDGRRTFYGDQVK	GWEAGTFDS	ND ND ND ND ND ND
GFTLNSKGIS	VIYADGRRTFYIDSVK	GRAAGTFRS	ND ND ND ND ND ND
GFDLNEYGIS	VIYADGVRTFYADSVK	GNAAGTFNV	-0.18 -0.30 -0.54 -0.49 -0.46 -0.04
GFTLNSYGIS	VIYRDGMRTFYGDEVK	GRAAGTFKS	ND ND ND ND ND ND
GFDLNEYGIS	VIYADGMRTAYADKVK	GENAGTFDQ	0.48 -0.80 ND ND -0.64 ND
GEDLEEYGIS	VIYADGMRQYYAANVK	GDINDVDDL	ND ND ND ND ND ND
GYSLDEYGIS	VIYADGVRQFYADDVK	GGIAGTFNY	1.46 0.38 0.65 0.07 1.21 2.00
GFTLNSYGIS	VIYSDGRRTAYGDSVK	SRAAGTFDS	ND ND ND ND ND 2.01
GFTLNSYGIS	VIYSCGRRTFYGDSVK	ARAAGTWDT	ND ND ND ND ND ND
GFDLEEYGIS	VIYADGRRTFYADDVK	GENAGTFDI	-0.63 -0.49 -0.53 -0.61 -0.70 -0.55

From the list, the first 7 with no signal in any replicate:

CDR-H1	CDR-H2	CDR-H3	log10 Kd (nM) by replicate
GFTLNDYGIS	VIYSDGRLTQYIDSVK	GRAAGAFDS	ND ND ND ND ND ND
GFNFDEYGIS	VIYADGMRRAYVDEVK	GSHSDVFNM	ND ND ND ND ND ND
GFTLNDYGIS	VIYSDGRRTFYADSVK	GRAAGTFIS	ND ND ND ND ND ND
GFNLLSYGYS	VIYSDGRRTFYGDSVK	NRAAGTFLS	ND ND ND ND ND ND
GFDLEEYGIS	VIYADGQREAYTENVK	GNSMGMDVL	ND ND ND ND ND ND
GFTLNEYGIS	VIYSDGRRTFYGDSVK	GRAAGSFTT	ND ND ND ND ND ND
GFTLNSYGIS	VIYSDGRRFFYGDSVK	GRAAGTFDS	ND ND ND ND ND ND

In the paper, a design with two or fewer of six values counts as a poor binder.
Of ten entries with the parent sequence, four were seen in most replicates (averages 0.34 to 2.37), three in one and three in none, so single entries are noisy.
Some sequences occur more than once in the pool; their replicates are listed entry by entry, parted by semicolons.
A sequence measured in both rounds can read differently, since the two assays cover different ranges.